This test concerns microorganisms pathogenic to animal and plant life. The experiment in a line: Growth inhibition in words. Type of test: cell-based.

In the case of `CN[C@@H]1[C@@H](O[C@H]2O[C@H](CO)[C@@H](N)[C@H](O)[C@H]2O)O[C@H]2[C@H](O)[C@@H](N)[C@@H](O[C@H]3[C@H](O)[C@@H](O)[C@H](N)C[C@@H]3N)O[C@@H]2[C@@H]1O` [Nebramycin VII], the “inhibits the growth of microorganisms pathogenic to animal and plant life” value is reported as “inhibits the growth”.

The record behind these values is US3962427A, “Antibiotic nebramycin factor VII” (Eli Lilly and Company, priority 1974, dated 1976).
